Data: US11623923B2, “Uracil compound as c-MET/AXL inhibitor” (MEDSHINE DISCOVERY, INC., priority 2017, dated 2023)

Test system: MKN45 gastric cancer cell line
Test: Assay of inhibitory effect on cell proliferation (CellTiter-Glo)
Settings: read-out: MKN45 cell IC50, three days incubation

O=C(Nc1ccc(Oc2ccnc(NC(=O)N3CCC(O)CC3)c2)c(F)c1)c1cn(CC2CC2)c(=O)n(-c2ccc(F)cc2)c1=O
IC50: 12.6 nM
